Assay: Urinary excretion of phenylbutyrate, benzoate and their conjugated products; nitrogen conjugation in 24 h urine
Settings: ^15N labeled test meal
Method: This was a randomized, three-arm, crossover study. Each arm was completed over a four-day period with a washout period of at least 7 days between any two of the treatment arms (FIG. 1). […] The treatments were designed to provide isomolar amount of drugs and the total daily dose was administered in three equally divided doses.
On day 1 of study arm 1, detailed medical history review and physical examination were performed. Complete blood count, comprehensive metabolic panel, plasma ammonia, and urinalysis (safety laboratory measurements) were performed. Urine pregnancy test was performed on all females. […]
Plasma and urinary drugs and their conjugated products as well as urea and amino acids were determined by mass spectrometry and quantitated based on the dilution of labeled internal standards. Total urinary nitrogen was determined using the micro-Kjeldahl method.
Plasma and urinary phenylbutyrate, PAA, and benzoate were determined as their pentafluorobenzyl derivatives by NCI-GC-MS; . […] Underivatized PAGN and HA were measured by HESI LC-MS/MS; [^2H5] […]
Accordingly, these background values were subtracted from the values obtained during the treatment with phenylbutyrate and benzoate. The total amount of nitrogen conjugated was expressed as fraction of the test meal, by dividing by the total nitrogen content of the test meal. […]

## sodium phenylbutyrate [NaPB]
  Urinary 5-[^15N] PAGN: 142.0 μmol/24 h

Source: patent US11819483B2, “Combination therapy to treat urea cycle disorders” (Baylor College of Medicine, priority 2017, dated 2023)
